This is an account of results in ChEMBL document CHEMBL3425418, “Design, synthesis and biological evaluation of deuterated Tivozanib for improving pharmacokinetic properties” (Bioorg Med Chem Lett, 2015).

The chains behind the UniProt entries cited, without tags or fusion partners.
UniProt P35916, whole entry: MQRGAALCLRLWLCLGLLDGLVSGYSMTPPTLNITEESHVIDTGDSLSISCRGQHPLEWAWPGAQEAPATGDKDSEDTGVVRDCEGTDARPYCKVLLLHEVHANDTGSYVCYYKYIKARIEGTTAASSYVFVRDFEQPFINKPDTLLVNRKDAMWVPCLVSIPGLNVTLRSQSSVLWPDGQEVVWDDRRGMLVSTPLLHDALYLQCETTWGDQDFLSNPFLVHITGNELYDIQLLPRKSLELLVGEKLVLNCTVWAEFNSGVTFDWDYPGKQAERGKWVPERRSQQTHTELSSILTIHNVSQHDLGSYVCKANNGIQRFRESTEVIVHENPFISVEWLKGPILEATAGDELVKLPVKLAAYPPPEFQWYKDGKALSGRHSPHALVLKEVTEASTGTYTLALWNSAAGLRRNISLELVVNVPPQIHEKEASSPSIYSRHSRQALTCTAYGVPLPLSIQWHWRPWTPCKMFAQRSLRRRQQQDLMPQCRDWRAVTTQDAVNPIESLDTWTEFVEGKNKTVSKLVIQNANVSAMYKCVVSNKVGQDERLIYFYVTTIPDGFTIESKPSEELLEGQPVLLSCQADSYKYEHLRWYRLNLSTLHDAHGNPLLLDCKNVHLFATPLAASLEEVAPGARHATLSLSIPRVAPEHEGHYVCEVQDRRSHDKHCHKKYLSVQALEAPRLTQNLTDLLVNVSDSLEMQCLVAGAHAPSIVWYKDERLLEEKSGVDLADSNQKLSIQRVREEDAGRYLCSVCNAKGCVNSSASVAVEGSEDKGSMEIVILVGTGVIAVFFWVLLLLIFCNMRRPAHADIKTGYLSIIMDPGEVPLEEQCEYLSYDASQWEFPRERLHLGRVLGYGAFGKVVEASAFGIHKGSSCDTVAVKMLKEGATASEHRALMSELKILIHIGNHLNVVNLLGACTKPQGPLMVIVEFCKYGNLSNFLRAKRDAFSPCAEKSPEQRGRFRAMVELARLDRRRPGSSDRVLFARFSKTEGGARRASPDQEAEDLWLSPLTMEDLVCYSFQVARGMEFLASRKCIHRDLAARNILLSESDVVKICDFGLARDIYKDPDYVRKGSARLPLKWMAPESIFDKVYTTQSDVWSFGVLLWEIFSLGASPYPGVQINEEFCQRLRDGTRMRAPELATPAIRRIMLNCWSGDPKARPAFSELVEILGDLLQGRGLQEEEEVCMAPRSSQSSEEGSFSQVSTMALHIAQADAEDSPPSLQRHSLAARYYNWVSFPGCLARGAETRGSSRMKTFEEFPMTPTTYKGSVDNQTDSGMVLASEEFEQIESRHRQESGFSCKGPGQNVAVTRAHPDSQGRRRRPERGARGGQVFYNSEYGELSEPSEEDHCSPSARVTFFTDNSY

In this assay the target is Vascular endothelial growth factor receptor 3 (Homo sapiens, UniProt P35916).

One may read the IC50 as the concentration that gives 50% inhibition. Low values mean greater potency, high ones weaker potency. In turn, `[2H]C([2H])([2H])Oc1cc2nccc(Oc3ccc(NC(=O)Nc4cc(C)on4)c(Cl)c3)c2cc1OC([2H])([2H])[2H]` registered an IC50 of 4.55 nM.
